# Source: patent US11358977B2, “Deuterated pyridone amides and prodrugs thereof as modulators of sodium channels” (VERTEX PHARMACEUTICALS INCORPORATED, priority 2017, dated 2022)
# Chains of the proteins cited; added tags and fusions are not shown.
# UniProt Q9Y5Y9, whole entry: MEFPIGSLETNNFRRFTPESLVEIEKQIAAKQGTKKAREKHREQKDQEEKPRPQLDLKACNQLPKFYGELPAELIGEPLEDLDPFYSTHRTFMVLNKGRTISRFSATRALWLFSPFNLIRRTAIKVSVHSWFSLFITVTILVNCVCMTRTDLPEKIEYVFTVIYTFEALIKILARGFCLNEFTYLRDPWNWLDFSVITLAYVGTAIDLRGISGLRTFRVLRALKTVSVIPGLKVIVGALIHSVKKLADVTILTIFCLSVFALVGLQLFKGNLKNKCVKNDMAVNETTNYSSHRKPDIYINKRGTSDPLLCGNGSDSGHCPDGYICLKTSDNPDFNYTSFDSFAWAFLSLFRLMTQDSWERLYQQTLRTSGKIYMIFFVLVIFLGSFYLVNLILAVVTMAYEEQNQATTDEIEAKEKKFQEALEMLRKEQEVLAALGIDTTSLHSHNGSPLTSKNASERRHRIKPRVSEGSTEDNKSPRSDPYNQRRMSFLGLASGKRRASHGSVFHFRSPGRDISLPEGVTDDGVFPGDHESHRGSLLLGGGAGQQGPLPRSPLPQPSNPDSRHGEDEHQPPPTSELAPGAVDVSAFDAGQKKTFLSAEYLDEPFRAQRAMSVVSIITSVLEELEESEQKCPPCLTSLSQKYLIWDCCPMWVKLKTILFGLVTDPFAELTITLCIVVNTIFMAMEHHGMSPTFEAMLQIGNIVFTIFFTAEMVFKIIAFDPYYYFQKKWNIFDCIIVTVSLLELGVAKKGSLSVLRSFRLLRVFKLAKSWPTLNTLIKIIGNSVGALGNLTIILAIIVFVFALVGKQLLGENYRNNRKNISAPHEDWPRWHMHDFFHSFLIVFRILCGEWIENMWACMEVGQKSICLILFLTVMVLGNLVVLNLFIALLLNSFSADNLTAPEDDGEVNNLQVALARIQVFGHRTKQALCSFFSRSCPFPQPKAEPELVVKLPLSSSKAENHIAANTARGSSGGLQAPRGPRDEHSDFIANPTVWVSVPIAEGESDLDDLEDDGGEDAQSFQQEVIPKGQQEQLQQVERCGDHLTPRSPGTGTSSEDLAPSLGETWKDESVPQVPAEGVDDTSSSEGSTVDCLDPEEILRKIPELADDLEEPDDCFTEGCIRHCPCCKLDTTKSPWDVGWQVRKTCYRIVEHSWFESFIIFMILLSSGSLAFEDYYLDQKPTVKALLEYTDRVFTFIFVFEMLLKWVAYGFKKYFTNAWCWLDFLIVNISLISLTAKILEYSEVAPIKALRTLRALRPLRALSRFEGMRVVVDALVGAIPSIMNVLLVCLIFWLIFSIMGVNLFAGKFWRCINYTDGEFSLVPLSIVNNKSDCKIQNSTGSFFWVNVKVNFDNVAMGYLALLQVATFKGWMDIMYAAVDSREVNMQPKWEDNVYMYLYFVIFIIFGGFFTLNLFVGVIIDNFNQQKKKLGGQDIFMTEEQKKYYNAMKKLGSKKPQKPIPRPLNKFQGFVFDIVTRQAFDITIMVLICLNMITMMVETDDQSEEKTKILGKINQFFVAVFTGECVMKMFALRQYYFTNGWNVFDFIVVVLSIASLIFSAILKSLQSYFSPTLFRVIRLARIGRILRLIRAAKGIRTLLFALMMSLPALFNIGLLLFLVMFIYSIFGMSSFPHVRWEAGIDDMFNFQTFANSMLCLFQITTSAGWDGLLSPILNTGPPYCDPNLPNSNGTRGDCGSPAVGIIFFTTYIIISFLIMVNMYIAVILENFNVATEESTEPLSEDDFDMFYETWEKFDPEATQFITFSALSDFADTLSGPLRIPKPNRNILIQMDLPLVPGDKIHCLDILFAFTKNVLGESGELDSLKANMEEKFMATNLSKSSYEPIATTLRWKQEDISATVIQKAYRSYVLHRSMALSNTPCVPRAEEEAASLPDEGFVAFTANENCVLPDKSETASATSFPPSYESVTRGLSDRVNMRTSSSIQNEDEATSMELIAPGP
# Target: T1, human NaV 1.8 (Homo sapiens, UniProt Q9Y5Y9)
# T1 construct: expressed in transfected cells; host or cells: HEK cells, grown under blasticidin selection; KIR2.1 BacMam virus added before seeding
# Experiment: E-VIPR assay for NaV inhibition
# Type: cell-based
# Conditions: HEK cells expressing human NaV 1.8, E-VIPR, 11 point dose response, top dose 3 μM; read-out: Nav1.8 IC50
# Text: Sodium ion channels are voltage-dependent proteins that can be activated by inducing membrane voltage changes by applying electric fields. The electrical stimulation instrument and methods of use, referred to as E-VIPR, are described in International Publication No. WO 2002/008748 A3 and C.-J. Huang et al. Characterization of voltage-gated sodium channel blockers by electrical stimulation and fluorescence detection of membrane potential, 24 Nature Biotech. 439-46 (2006), both of which are incorporated by reference in their entirety. The instrument comprises a microtiter plate handler, an optical system for exciting the coumarin dye while simultaneously recording the coumarin and oxonol emissions, a waveform generator, a current- or voltage-controlled amplifier, and parallel electrode pairs that are inserted into assay plate wells. Under integrated computer control, this instrument passes user-programmed electrical stimulus protocols to cells within the wells of the microtiter plate.
# 16-20 Hours prior to running the assay on E-VIPR, HEK cells expressing human NaV 1.8 were seeded into 384-well plates (Greiner #781091-1B), pre-coated with matrigel, at a density of 25,000 cells per well. 5% KIR2.1 Bacmam virus was added to the final cell suspension before seeding into cell plates. […]
smiles,measurement,value
"[2H]C([2H])([2H])c1cc(F)ccc1Oc1cc(C(F)(F)F)ccc1C(=O)Nc1cc[nH]c(=O)c1 [Compound 7, 2-(4-fluoro-2-(methyl-d3)phenoxy)-N-(2-oxo-1,2-dihydropyridin-4-yl)-4-(trifluoromethyl)benzamide]",IC50,350 nM
